Values of other authors as cited in patent US7270977B2, “Polypeptides for identifying fungicidally active compounds” (priority 2001, dated 2007).

System: C. albicans cells
Details: cells which have a plasmid with recombinant IMPDH; cited from earlier work

COc1c(C)c2c(c(O)c1C/C=C(\C)CCC(=O)O)C(=O)OC2 [mycophenolic acid]
concentration up to which cells are resistant: up to 40 μg/ml
